{"sequences": {"note": "Protein sequences, listed by entry. Tags and fused reporters are not part of them.", "UniProt P30542, whole entry": "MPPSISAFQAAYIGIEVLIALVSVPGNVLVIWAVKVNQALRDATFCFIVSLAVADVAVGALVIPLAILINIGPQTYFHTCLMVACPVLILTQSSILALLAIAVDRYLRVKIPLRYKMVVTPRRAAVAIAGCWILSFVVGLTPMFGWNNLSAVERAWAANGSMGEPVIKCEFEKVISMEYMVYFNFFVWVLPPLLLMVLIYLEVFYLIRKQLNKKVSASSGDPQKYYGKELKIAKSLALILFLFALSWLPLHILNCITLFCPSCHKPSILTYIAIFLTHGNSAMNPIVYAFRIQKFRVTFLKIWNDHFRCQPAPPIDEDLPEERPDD"}, "source": "patent USRE47351E1", "about": "(Gilead Sciences, Inc., priority 1999, dated 2019)", "target": "human A1AdoR (Homo sapiens (Human), UniProt P30542)", "assay": "Competition binding, [3H]DPCPX/[3H]CPX sites on CHO-hA1AdoR cell membranes", "details": "undefined bracketed value, possibly Hill slope"}
{"smiles": "CCNC(=O)[C@H]1O[C@@H](n2cnc3c(N)ncnc32)[C@H](O)[C@@H]1O", "note": "[NECA, 5′-N-ethylcarboxamidoadenosine, reference compound]", "values": [{"measurement": "Value in square brackets below binding affinity, CHO-hA1AR (not defined in the patent)", "result": "[0.88 ± 0.03]"}]}
